Reference: US8765779B2, “Tricyclic derivatives and their pharmaceutical use and compositions” (Cephalon, Inc., priority 2009, dated 2014)
Read-outs that look alike come from different tables or passages of the source.

Chains of the proteins cited; added tags and fusions are not shown.
UniProt P50406, whole entry: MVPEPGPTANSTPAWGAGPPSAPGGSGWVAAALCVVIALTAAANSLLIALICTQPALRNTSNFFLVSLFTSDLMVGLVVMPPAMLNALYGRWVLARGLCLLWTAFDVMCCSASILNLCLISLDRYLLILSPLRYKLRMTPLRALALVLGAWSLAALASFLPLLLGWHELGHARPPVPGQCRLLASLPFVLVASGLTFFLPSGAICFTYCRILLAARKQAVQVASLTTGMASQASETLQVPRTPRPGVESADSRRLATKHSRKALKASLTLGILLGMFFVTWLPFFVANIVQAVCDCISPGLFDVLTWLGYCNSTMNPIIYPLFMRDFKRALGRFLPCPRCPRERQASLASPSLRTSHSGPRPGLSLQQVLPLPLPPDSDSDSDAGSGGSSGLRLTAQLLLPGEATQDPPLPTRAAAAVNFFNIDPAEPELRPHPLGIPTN

Biological target: T1, human 5-HT6 receptor (Homo sapiens, UniProt P50406)
T1 construct: host or cells: CHO-K1 cells, stably transfected; membranes prepared in house
Assay: Human 5-HT6 Receptor Binding Assay ([3H]LSD displacement, scintillation beads)
Method: Human 5-HT6 Receptor Binding Assay
Membranes were prepared from CHO—K1 cells stably transfected with the human 5-HT6 receptor (Euroscreen; ES-316-C). The cells were grown in Gibco Advanced DMEM-F12 (Cat#12634010) containing 2% dialyzed FBS (Hyclone Cat#SH30079.03). The cells were harvested in phosphate buffered saline (PBS) containing 0.1 mM EDTA and pelleted by centrifugation (1000×g), the supernatant was discarded and the pellets were stored at −80° C. prior to membrane preparation. Membranes were prepared as previously described (J Bio Chem. 1992, 267 (14) 9844-51). […] The membranes were centrifuged at 40,000×g for 30 min at 4° C. and the pellets were resuspended in membrane buffer containing 250 mM sucrose, and protein concentration was determined using the Coomassie Plus kit (Pierce Biotechnology, Rockford, Ill.).
Membranes prepared from cells expressing recombinant human 5-HT6 receptor (h5-HT6) were resuspended in assay buffer containing 50 mM Tris HCl, (pH7.4), 4 mM CaCl2, 10 μg/mL saponin, and 0.1% (w/v) ascorbic acid. […] Plates were read using the Microbeta Trilux 1450 LSC and luminescence counter. Data were analyzed by nonlinear […] using the dose-response equation (variable slope) to calculate IC50 in XLfit4 (ID Business Solutions Inc.): y=(Bottom+((Top−Bottom)/(1+((IC50/x)^Hill slope)))) […]

Row | Structure (SMILES) | Ki (h5-HT6 (Ki, nM)) [nM] | Ki (membranes of CHO-K1 cells with recombinant human 5-HT6, 4 nM [3H]LSD, Table 1, class symbols, read-out: h5-HT6 (Ki)) [nM]
1 | CC1(C(F)F)NCCc2c1oc1cc(S(=O)(=O)c3cccc(F)c3)ccc21 (centres unmarked) [Example 508] | < 500 | –
2 | O=S(=O)(c1cccc(F)c1)c1ccc2c3c(oc2c1)C1(CCCOC1)NCC3 (centres unmarked) [Example 22, 7-[(3-Fluorophenyl)sulfonyl]-3,4,5′,6′-tetrahydro-2H,4′H-spiro[1-benzofuro[2,3-c]pyridine-1,3′-pyran]] | – | < 500
